Values quoted from earlier work in patent US20200352905A1, “6-(2,4-DICHLOROPHENYL)-5-[4-[(3S)-1-(3-FLUOROPROPYL)PYRROLIDIN-3-YL]OXYPHENYL]-8,9-DIHYDRO-7H-BENZO[7]ANNULENE-2-CARBOXYLIC ACID FOR USE IN METASTATIC OR ADVANCED BREAST CANCER PATIENTS” (SANOFI, priority 2019, published 2020).

Test system: CYP3A
Conditions: in vivo, po; cited from earlier work

## C[C@@H](Oc1cc(-c2cnn(C3CCNCC3)c2)cnc1N)c1c(Cl)ccc(F)c1Cl [Crizotinib]
  AUC Ratio: 3.65
